Assay results from patent US4559323A, “A41030 Antibiotics” (Eli Lilly and Company, priority 1984, dated 1985).

Experiments:
[1] = mice, administered intraperitoneally
[2] = tested on: Peptostreptococcus intermedius; assay: Agar-dilution MIC (anaerobes); format: cell-based
Protocol: (§1) The MIC values were determined by the agar-dilution method, and are recorded in Table 15, which follows.

[3] = tested on: Peptostreptococcus anaerobius; assay: Agar-dilution MIC (anaerobes); format: cell-based; conditions: Table 15; Ps. anaerobius 8
Protocol: as §1

With A41030 factor C the LD50 [1] was > 300 mg/kg, the acute toxicity [1] was > 300 mg/kg and the MIC ([2]; Table 14, Peptostreptococcus intermedius 1264) was 0.5 µg/mL. It also gave an MIC ([2]; Table 15, Ps. intermedius 1524) of 0.5 µg/mL and an MIC [3] of 0.5 µg/mL.
